The values that follow are results of earlier work, collected in patent publication US8613821B2, “Basic metal nitrate, process for producing the same and gas generating agent composition” (dated 2013).

In the data set the test system is rat.

Take diammonium salt of bitetrazole: the “LD50 (oral-rat)” value was 2,000 mg/kg.
